Measurements taken from US20250228873A1, “C25 R AND S ISOMERS OF AMINOSTEROLS AND METHODS OF MAKING AND USING THE SAME” (Enterin, Inc., priority 2022, published 2025).
Like-named read-outs stand apart in the source and are kept apart here.

By UniProt entry, the sequences of proteins in these tests, tags left out.
UniProt P62136, whole entry: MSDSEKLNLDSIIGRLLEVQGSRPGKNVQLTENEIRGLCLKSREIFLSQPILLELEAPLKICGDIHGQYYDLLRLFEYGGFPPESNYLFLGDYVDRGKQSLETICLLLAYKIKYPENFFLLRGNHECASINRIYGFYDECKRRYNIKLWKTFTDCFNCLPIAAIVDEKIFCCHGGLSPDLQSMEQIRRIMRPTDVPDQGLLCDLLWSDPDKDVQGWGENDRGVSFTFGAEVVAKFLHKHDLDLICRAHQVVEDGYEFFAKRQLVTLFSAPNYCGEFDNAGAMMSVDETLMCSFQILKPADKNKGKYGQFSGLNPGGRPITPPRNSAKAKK
UniProt P62140, whole entry: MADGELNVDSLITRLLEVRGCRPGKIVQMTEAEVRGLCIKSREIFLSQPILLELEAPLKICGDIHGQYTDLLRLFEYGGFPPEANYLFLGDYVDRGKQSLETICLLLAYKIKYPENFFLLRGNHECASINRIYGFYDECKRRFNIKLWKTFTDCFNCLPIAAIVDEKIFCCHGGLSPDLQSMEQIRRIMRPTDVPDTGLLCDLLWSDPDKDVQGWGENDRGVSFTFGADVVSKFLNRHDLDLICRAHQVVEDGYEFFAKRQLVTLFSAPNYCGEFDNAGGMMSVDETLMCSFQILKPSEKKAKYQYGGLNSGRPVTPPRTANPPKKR

Experiments:
Assay in all cases: Phosphatase panel, DiFMUP fluorescence assay
Assay type in all cases: biochemical
PP1A = target: T1, PP1A (Homo sapiens, UniProt P62136)
T1 construct: purchased Recation Biology Inc

DUSP22/MKPX = target: T2, DUSP22/MKPX (Homo sapiens, UniProt Q9NRW4)
T2 construct: purchased Recation Biology Inc
T2 sequence (Q9NRW4 1-184): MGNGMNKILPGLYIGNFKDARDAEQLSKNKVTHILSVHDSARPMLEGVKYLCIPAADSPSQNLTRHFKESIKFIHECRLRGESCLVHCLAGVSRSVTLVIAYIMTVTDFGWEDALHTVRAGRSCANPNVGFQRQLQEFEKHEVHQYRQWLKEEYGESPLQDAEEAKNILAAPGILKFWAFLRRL

PTPN7/LC-PTP = target: T3, PTPN7/LC-PTP (Homo sapiens, UniProt P35236)
T3 construct: purchased Recation Biology Inc
T3 sequence (P35236 1-360): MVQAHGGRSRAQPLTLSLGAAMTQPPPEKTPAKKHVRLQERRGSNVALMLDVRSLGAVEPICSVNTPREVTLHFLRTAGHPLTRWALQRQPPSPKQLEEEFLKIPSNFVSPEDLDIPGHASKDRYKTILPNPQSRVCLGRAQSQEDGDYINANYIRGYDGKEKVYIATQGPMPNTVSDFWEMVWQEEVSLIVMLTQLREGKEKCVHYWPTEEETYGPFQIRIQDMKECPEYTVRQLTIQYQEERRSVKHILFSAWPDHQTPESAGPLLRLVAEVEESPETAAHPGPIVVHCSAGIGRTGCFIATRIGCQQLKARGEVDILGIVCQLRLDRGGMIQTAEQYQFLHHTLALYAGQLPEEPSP

PP1B = target: T4, PP1B (Homo sapiens, UniProt P62140)
T4 construct: purchased Recation Biology Inc

CCc1oc2cc(S(=O)(=O)Nc3ccc(S(=O)(=O)Nc4nccs4)cc3)ccc2c1C(=O)c1cc(Br)c(O)c(Br)c1 [PTP1B Inhibitor, 3-(3,5-Dibromo-4-hydroxy-benzoyl)-2-ethyl-benzofuran-6-sulfonicacid-(4-(thiazol-2-ylsulfamyl)-phenyl)-amide, reference compound]
IC50 (PP1A): 6.91e-06 M
IC50 (PP1A; Table 5B, read-out: Compound IC50 (M) PP1A): 2.15e-05 M
IC50 (PP1A; Table 19A, read-out: inhibitory activity PP1A): 6.45e-06 M
IC50 (DUSP22/MKPX): 9.63e-06 M
IC50 (DUSP22/MKPX; Table 5B, read-out: Compound IC50 (M) DUSP22/MKPX): 1.45e-05 M
IC50 (DUSP22/MKPX; Table 19A, read-out: inhibitory activity DUSP22/MKPXPT): 7.23e-06 M
IC50 (PTPN7/LC-PTP): 6.89e-06 M
IC50 (PTPN7/LC-PTP; Table 5C, read-out: Compound IC50 (M) PTPN7/LC-PTP): 1.28e-05 M
IC50 (PTPN7/LC-PTP; Table 18B, read-out: inhibitory activity PTPN7/LC-PTP): 8.65e-06 M
IC50 (PP1B; Table 5B, read-out: Compound IC50 (M) PP1B): 3.46e-05 M
IC50 (PP1B; inhibitory activity PP1B, Table 18A): 5.99e-06 M
IC50 (PP1B; inhibitory activity PP1B, Table 19A): 4.97e-06 M
